Bioassay records deposited in PubChem by National Center for Advancing Translational Sciences (NCATS).
miR-21 FLuc: miR-21 reporter, rising signal; HeLa miR-21 FLuc reporter, luciferase, 48 h; Potency, µM (titrated, usually from 38.3 µM); AID 2288; 340,000 tested, under 10 active; active = well fitted rising curve with a large enough effect; inconclusive = small, poorly fitted or top-dose-only effect; inactive = no such curve, though single readings can be large or run the other way;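 further: miR-21 action dims this reporter so a rising signal means less miR-21 action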
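Using DMEM plus 10% FBS, HeLa miR-21-FLuc cells are incubated with test compounds (final up to about 40uM) for 48 hours; firefly luciferase signal is then imaged following reagent-mediated lysis.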
Nrf2 block: inhibitors of Nrf2 signaling | A549 ARE-Fluc reporter, luciferase luminescence, 18-24 h | Potency, µM (highest dose often 46 µM), hits mostly inhibitors | 360,000 tested, 2.1% active; note: nearly all actives have a fitted effect of over 60% in size
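Concentration-response testing used A549 ARE_Fluc cells at 5000 cells/well. Following an 18-24 h compound incubation, viability was read by fluorescence (Ex 405/Em 525) and luciferase output by luminescence.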
A549 viability: kills or reduces viability of A549 cells in Nrf2 counter-screen | A549 ARE-Fluc cells, CellTiter-Fluor viability, 18-24 h | Potency, µM (top dose mostly 46 µM), hits mostly inhibitors | 390,000 tested, 0.16% active
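Cytotoxicity counterscreen: CellTiter-Fluor fluorescence was measured in A549 ARE_Fluc cells after 18-24 h of compound exposure in a concentration series. The subsequent BugLite luminescent read reports ARE-luciferase activity.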
Glioma ERSR ind: inducers of ER stress response in human glioma cells; U87-MG GRP78 promoter luciferase reporter, 16 h; Potency, µM, most hits filed as activators; 420,000 tested, 0.02% active; AID 602332; note: series mostly up to about 76 µM; nearly all actives have a fitted effect of over 35% in size
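ERSR induction read as luciferase luminescence (Bright-Glo, 10 min at room temperature) in stably transfected human U87-MG glioma cells exposed to compounds for 16 h, using GRP78 as sensor.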
Nrf2 activator: activators of Nrf2 (ARE) signaling; 410,000 tested, 0.31% active; AID 624171; AREc32 ARE-luciferase reporter (MCF7-derived line), luminescence, 24 h; Potency, µM (series often up to 46.1 µM), usual class: activators; note: nearly all actives have a fitted effect of over 65% in size
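Each well held 1000 AREc32 cells, which were incubated with compound for 24 hr at 37 deg C after overnight attachment, and ARE reporter activity was quantified by firefly luciferase luminescence.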
TSG101-PTAP inh: blocks PTAP/TSG101 interaction to inhibit HIV-1 budding | Q99816 | Fluorescence polarization, FITC-PTAP peptide / Tsg101 binding | Potency, µM (titrated, usually from 115 µM), actives largely listed as inhibitors | 340,000 tested, under 10 active | AID 493005; active = well fitted inhibition curve with a large enough effect in the main read-out, with a control signal flat, not every such curve was filed as active; inconclusive = small, poorly fitted or top-dose-only effect, or effect the other way, or a change in a side signal; inactive = no such curve, though single readings can be large or run the other way
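Steps: Tsg101 binding domain dispensed (10 uM final), compounds pinned in DMSO, FITC-labeled PTAP-motif peptide added (50 nM final); after 20 min binding at room temperature, polarization measured.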
Large screens that a line does not name were inactive. This is a sample that favours compounds with a hit; in the whole collection about 2.1% have one here. Unless noted, calls come from the whole dose curve; as a rule, active = well fitted curve in the direction sought with a large enough effect; inconclusive = small, poorly fitted or top-dose-only effect, or another doubt; inactive = no such curve, though single readings can be large; an effect the other way counts as inactive or inconclusive.

CCC(=O)N1c2ccc(S(=O)(=O)NCCc3ccccc3)cc2CC1C (stereo not given)	Nrf2 block 23µM
CCCC(=O)Nc1ccc(C(=O)Nc2cc(C(F)(F)F)ccc2Cl)cc1	Nrf2 block 10µM
O=C(Nc1cc(C(F)(F)F)ccc1Cl)c1ccc(NC(=O)C(F)(F)F)cc1	Nrf2 block inconclusive
CCc1ccc(C(=O)C[N+]2(C)CCOCC2)cc1	none (no result: miR-21 FLuc, Nrf2 block, A549 viability, Nrf2 activator, TSG101-PTAP inh)
CN(C)c1ccc2nc3c(=O)[nH]c(=O)nc-3n(CC(O)C(O)C(O)CO)c2c1 (stereo not given)	Nrf2 block inconclusive, A549 viability 10µM, TSG101-PTAP inh inconclusive
C[C@@H]1C[C@@H]2OC(=O)[C@]3(C)[C@H]2[C@@H](OC3(C)O)[C@]2(C)C(=O)C=C[C@H]12 (stereo not given in full)	miR-21 FLuc inconclusive, Nrf2 activator 14µM
CCN1CCc2c(OCC(=O)N3N=C(c4cccs4)CC3c3ccc(F)cc3)cccc2C1=O (stereo not given)	Nrf2 block 23µM
Oc1cc2cc(-c3csc(-c4ccc(F)cc4)n3)cc3c2n1CCC3	none (no result: miR-21 FLuc, Nrf2 block, A549 viability, Nrf2 activator, TSG101-PTAP inh)
Cc1sc(NC(=O)c2ccc(F)cc2)c(CN2CCCCCC2)c1C	Nrf2 activator 13µM
CCCCc1cc(O)c(CCCC)c(O)c1	Glioma ERSR ind 22µM, Nrf2 activator inconclusive (no result: Nrf2 block)
CCCCCc1cc(O)c2c(C)cc(=O)oc2c1	none
COc1cc(=O)n2c(c1C(=O)NCc1ccco1)CCN(Cc1c(F)cccc1F)CC2	none (no result: miR-21 FLuc, Nrf2 block, A549 viability, Nrf2 activator, TSG101-PTAP inh)
COc1cc(O)c(C(CCN2CCCC(C)C2)c2ccc3c(c2)OCO3)c(OC)c1 (stereo not given)	none
COc1cc(OC)c2ccc(=O)oc2c1C(CCN1CCCC(C)C1)c1ccc2c(c1)OCO2 (stereo not given)	A549 viability 16µM (no result: TSG101-PTAP inh)
C(=C\c1ccc2ccccc2n1)/c1cccnc1	none (no result: miR-21 FLuc, Nrf2 block, A549 viability, Nrf2 activator, TSG101-PTAP inh)
O=C1NC(c2ccccc2)=C(c2nc3ccccc3s2)C(c2ccc(F)cc2)N1 (stereo not given)	Nrf2 block 16µM, A549 viability inconclusive
COc1ccc(C2NC(=O)NC(c3ccccc3)=C2c2nc3ccccc3s2)cc1 (stereo not given)	Nrf2 block inconclusive, A549 viability inconclusive
Cc1ccccc1Cn1cc(NC(=O)c2noc3c2CC(C(C)(C)C)CC3)cn1 (stereo not given)	Nrf2 block inconclusive, A549 viability inconclusive
Cc1ccccc1Cn1nc(C)c(NC(=O)c2noc3c2CC(C(C)(C)C)CC3)c1C (stereo not given)	Nrf2 block 8.2µM
COc1ccc(NC(=O)COc2ccc(-c3nn(C)c(=O)c4ccccc34)cc2)cc1	none
COc1ccc(OCC(=O)Nc2cc(-c3nn(C)c(=O)c4ccccc34)ccc2OC)cc1	Nrf2 block 23µM
CCSc1nnc(SCC(=O)c2c(N)n(C)c(=O)n(C)c2=O)s1	Nrf2 block 21µM (no result: miR-21 FLuc)
Cc1ccccc1Nc1nnc(SCC(=O)c2c(N)n(C)c(=O)n(C)c2=O)s1	none
O=C(CNC(=O)c1ccccc1)OC(C(=O)Nc1ccc2c(c1)OCO2)c1ccccc1 (stereo not given)	none (no result: miR-21 FLuc, Glioma ERSR ind, Nrf2 activator, TSG101-PTAP inh)
O=C1C(=O)C(c2cc(O)c(O)c(O)c2)Oc2cc(O)cc(O)c21 (stereo not given)	none (no result: miR-21 FLuc, Nrf2 activator, TSG101-PTAP inh)
COc1ccc(N=c2cc(-c3ccc(OC)cc3)oc3ccccc23)cc1	Nrf2 block 16µM, A549 viability inconclusive
Cc1ncc2c(c1CNC(=O)c1ccc3c(c1)OCO3)CCN(C(=O)c1noc3c1CCCC3)C2	none (no result: miR-21 FLuc, Nrf2 block, A549 viability, Nrf2 activator, TSG101-PTAP inh)
COc1ccc(O)c(C(=O)N2CCC3(CC2)c2ccccc2[C@@H](NC(=O)c2ccccn2)[C@@H]3OC)c1	none (no result: miR-21 FLuc, Nrf2 block, A549 viability, Nrf2 activator, TSG101-PTAP inh)
COc1ccccc1NC(=O)c1ccc(NC(=O)c2cc3c(s2)CCC3)cc1	Nrf2 block 23µM
Cc1nc(C)n(CC(=O)NCC2Cc3cc(-c4ccsc4)cc(Cl)c3O2)n1 (stereo not given)	none (no result: miR-21 FLuc, Nrf2 block, A549 viability, Nrf2 activator, TSG101-PTAP inh)
O=C(Nc1ccc(OC(F)(F)F)cc1)N1CCN(c2ccnc3cc(Cl)ccc23)CC1	Nrf2 block 4.6µM, A549 viability inconclusive
O=C(C1CCC1)N1CCN(c2ccnc3cc(Cl)ccc23)CC1	none
CC(=O)c1ccc(N2CCN(c3ccnc4cc(Cl)ccc34)CC2)cc1	Nrf2 block 1.6µM
N#Cc1cccc(S(=O)(=O)N2CCN(c3ccnc4cc(Cl)ccc34)CC2)c1	Nrf2 block 10µM
O=C(C1CCCCC1)N1CCN(c2ccnc3cc(Cl)ccc23)CC1	miR-21 FLuc inconclusive, Nrf2 block 21µM
O=S(=O)(c1ccccc1OC(F)(F)F)N1CCN(c2ccnc3cc(Cl)ccc23)CC1	Nrf2 block inconclusive
O=C(CC(C(=O)O)n1ccnc1)c1ccc(Cl)cc1 (stereo not given)	none (no result: miR-21 FLuc, Nrf2 block, A549 viability, Nrf2 activator, TSG101-PTAP inh)
CN(C)c1ccc(/C=C/c2ccnc3ccc(Br)cc23)cc1	none (no result: miR-21 FLuc, Nrf2 block, A549 viability, Nrf2 activator, TSG101-PTAP inh)
O=C(C1CC1)N1CCN(c2ccnc3cc(Cl)ccc23)CC1	Nrf2 block inconclusive
O=C(Nc1ccc(OC(F)(F)F)cc1)c1ccc2nccnc2c1	Nrf2 block 13µM, A549 viability inconclusive
CC(C)(C)C(=O)N1CCN(c2ccnc3cc(Cl)ccc23)CC1	Nrf2 block 8.2µM
